Reference: patent US6723741B2, “Benzimidazoles and benzothiazoles and uses thereof” (Synaptic Pharmaceutical Corporation, priority 1996, dated 2004)

Amino acid sequences for entries named in this document (tags omitted).
UniProt P18825, whole entry, looked up: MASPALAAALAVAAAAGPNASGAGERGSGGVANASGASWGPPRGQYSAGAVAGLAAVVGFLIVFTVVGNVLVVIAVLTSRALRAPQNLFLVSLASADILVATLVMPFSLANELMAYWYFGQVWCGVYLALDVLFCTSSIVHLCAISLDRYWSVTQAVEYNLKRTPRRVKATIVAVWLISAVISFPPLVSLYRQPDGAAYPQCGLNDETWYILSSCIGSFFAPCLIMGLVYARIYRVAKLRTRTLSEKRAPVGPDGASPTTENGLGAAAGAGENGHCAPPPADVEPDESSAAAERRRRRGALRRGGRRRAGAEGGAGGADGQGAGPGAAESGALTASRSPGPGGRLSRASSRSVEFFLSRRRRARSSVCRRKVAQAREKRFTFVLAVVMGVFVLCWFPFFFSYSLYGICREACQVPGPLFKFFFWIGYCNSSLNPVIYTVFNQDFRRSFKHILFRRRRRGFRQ
UniProt P08913, whole entry, looked up: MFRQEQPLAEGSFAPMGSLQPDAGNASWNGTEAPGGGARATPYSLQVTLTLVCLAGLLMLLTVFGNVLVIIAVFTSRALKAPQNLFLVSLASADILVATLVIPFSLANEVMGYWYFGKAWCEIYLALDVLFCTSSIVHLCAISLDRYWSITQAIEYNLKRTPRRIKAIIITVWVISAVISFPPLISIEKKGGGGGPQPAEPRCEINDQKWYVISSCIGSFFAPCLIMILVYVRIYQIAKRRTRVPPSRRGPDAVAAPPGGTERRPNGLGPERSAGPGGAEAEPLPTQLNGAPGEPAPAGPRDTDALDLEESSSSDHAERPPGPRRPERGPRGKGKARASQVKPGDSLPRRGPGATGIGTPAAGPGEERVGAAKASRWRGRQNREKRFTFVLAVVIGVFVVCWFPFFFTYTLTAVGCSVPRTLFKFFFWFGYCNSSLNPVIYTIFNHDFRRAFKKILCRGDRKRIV

How the values were obtained:
[1] = target: human α2C adrenergic receptor (Homo sapiens, UniProt P18825); assay: Agonist activity: inhibition of forskolin-stimulated cAMP synthesis; assay type: cell-based; settings: stably transfected cells expressing human α2C
[2] = target: human α2A adrenergic receptor (Homo sapiens, UniProt P08913); assay: Radioligand binding assay, [3H]rauwolscine competition; settings: cloned human α2A, LM(tk-) cell membranes

Compound | pEC50 Alpha-2 C [1] | pKi Alpha-2 A [2]
c1nc2ccc(NC3=NCCS3)cc2s1 | 7.77 | 
c1nc2ccc(NC3=NCCN3)cc2s1 | 8.26 | 8.07
